Reference: patent publication US9458113B2 (Boehringer Ingelheim International GmbH, priority 2014, dated 2016)

Amino acid sequences for entries named in this document (tags omitted). Residues count along the entry.
UniProt P08246, 30-247 limits assumed: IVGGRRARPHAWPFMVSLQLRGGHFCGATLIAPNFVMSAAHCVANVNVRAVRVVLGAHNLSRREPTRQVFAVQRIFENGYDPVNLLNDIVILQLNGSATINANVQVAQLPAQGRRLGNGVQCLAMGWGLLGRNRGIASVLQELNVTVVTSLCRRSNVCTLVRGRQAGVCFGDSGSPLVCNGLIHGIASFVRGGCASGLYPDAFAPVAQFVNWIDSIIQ

Target: Human neutrophil elastase (Homo sapiens (Human), UniProt P08246)
Test: Human Neutrophil Elastase Assay
Settings: substrate MeOSuc-Ala-Ala-Pro-Val-AMC 250 μM, pH 7.5

Row | Compound | IC50 [nM]
1 | CN1C(=O)N(c2cccc(C(F)(F)F)c2)C2=C(C(=O)CC2)C1c1ccc(C#N)cc1C(=O)NC1C2CC1C2 (centres unmarked) | 6.6
2 | CNC(=O)c1cc(C#N)ccc1C1C2=C(CCC2=O)N(c2cccc(C(F)(F)F)c2)C(=O)N1C (centres unmarked) | 6.9
